## Yeast mating assay 1: variants of the scFv Ab-14

Values reported by Engelhart et al. 2022, doi:10.1038/s41597-022-01779-4 (FLAb copy).

The target is the same throughout: PDVDLGDISGINAS, from the HR2 region of SARS-CoV-2 spike.

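Phage display of a naive human antibody library on the peptide gave the parent. Library AAYL49 holds single substitutions and randomly drawn double and triple substitutions in the CDRs. In AlphaSeq, yeast of one mating type display the scFv and yeast of the other type display the target. Binding brings cells together so that they mate, and sequencing counts the barcode pairs among the diploids. Read counts were normalised to the haploid input and turned into Kd by a linear fit to BCL2-family pairs of known affinity, for each replicate. Mating was done three times.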

The variants keep the light chain, the linker and the frameworks of Ab-14 (scFv order VH, three GGGGS repeats, VL).
VH: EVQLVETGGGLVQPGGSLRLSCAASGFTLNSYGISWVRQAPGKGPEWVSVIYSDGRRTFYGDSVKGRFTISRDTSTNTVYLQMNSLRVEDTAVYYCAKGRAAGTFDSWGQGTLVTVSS
VL: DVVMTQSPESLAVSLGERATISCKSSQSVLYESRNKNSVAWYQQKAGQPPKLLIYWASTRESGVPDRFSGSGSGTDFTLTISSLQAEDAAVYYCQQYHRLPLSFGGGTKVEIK

Each variant is given by its three heavy chain CDRs, as the data file delimits them; those of the parent are GFTLNSYGIS, VIYSDGRRTFYGDSVK, GRAAGTFDS.
Values are log10 of the apparent Kd in nM; lower means stronger binding.
Replicates are averaged; those with no signal do not enter the mean.
"no signal" marks a missing value. The strain was present, yet no cells mated with the target were sequenced in any replicate, which points to weak or no binding.
Parent in this assay: reference entry 0.65, copy in this library 4.11 (one replicate of three).
Nonspecific signal, from three strains lacking the peptide, appeared in 15% of pairings of library AAYL49, centred on 4.06 (5% of these signals below 2.83); values are not corrected for it.

| CDR-H1 | CDR-H2 | CDR-H3 | mean, log10 nM | seen in |
|---|---|---|---|---|
| GFTLNSYGIS | VIRSDGRRTFYGDSVK | GRAAGTFDF | no signal | 0 of 3 |
| GFTLNSYGIS | VIYSDGRRTFYGDIVK | GRAAGTFKV | no signal | 0 of 3 |
| GFTFNSYGES | VIYSDGRRTFYGDSVK | GRAWGTFDS | no signal | 0 of 3 |
| GFTLNSYGIS | DIYNDGRRGFYGDSVK | GRAAGTFDS | 4.03 | 1 of 3 |
| GFTLNSMGIV | VIYSDGRRTFYGDLVK | GRAAGTFDS | 4.60 | 2 of 3 |
| CFTLNMYGIS | VIYSYGRRTFYGDSVK | GRAAGTFDS | 3.44 | 1 of 3 |
| GFTLNSYGIS | VIYNDGRSTFYGISVK | GRAAGTFDS | no signal | 0 of 3 |
| GFTLNSYGES | VIQSDGRRTFYGDMVK | GRAAGTFDS | no signal | 0 of 3 |
| GFTLNSYGIS | VVYSKGRRTFYSDSVK | GRAAGTFDS | no signal | 0 of 3 |
| GFTLNSYGIS | VIYSRGRRTFGGDSVK | GRLAGTFDS | no signal | 0 of 3 |
| GFTLVSYGIS | CIYSDGRRTFYGDSVK | FRAAGTFDS | 4.38 | 3 of 3 |
| GFTLNSYGSS | VIYSDGRRTFYGDSVK | GGAAGGFDS | no signal | 0 of 3 |
| GFTLNSYGIS | VIYSDIRFTFYGDSVK | GRAACTFDS | 4.38 | 2 of 3 |
| EFTLNSYGIS | VYYSDGRRTFYGDNVK | GRAAGTFDS | no signal | 0 of 3 |
| GFTLNSYGIS | VIHSDGRRSFYGRSVK | GRAAGTFDS | no signal | 0 of 3 |
| GFTLNSYGIS | VRYSDGRRTPYGDSVK | GRAAGTFDS | no signal | 0 of 3 |
| GMTRNSYGHS | VIYSDGRRTFYGDSVK | GRAAGTFDS | no signal | 0 of 3 |
| GFTLNSYGIS | VIYSDGSRTTYGDSVK | LRAAGTFDS | 4.94 | 2 of 3 |
| GNTLNSYGIS | RIYSDGRRTFYGDSVK | GRAAGRFDS | 3.27 | 1 of 3 |
| GFTLNSYGIS | VIYSNGRRSFYGDSVK | GRAAGTCDS | no signal | 0 of 3 |
| GFTLNSYNIS | PIESDGRRTFYGDSVK | GRAAGTFDS | no signal | 0 of 3 |
| GHILNSYGIS | VIYSDGRRTFPGDSVK | GRAAGTFDS | 2.58 | 2 of 3 |
| GFTLNSYVIS | VIYSDGRITFYGDSVK | GRAAGTFDS | 2.29 | 1 of 3 |
| GNTLNSYNIS | VIYSDGRRTFYGDSVK | GRAAGTFDE | no signal | 0 of 3 |
| GFTLNSYGIS | VILSNGRRTFYGDQVK | GRAAGTFDS | 4.67 | 1 of 3 |
| GFTLNSYGIS | VIYSDKRRTYYGDSVW | GRAAGTFDS | 5.04 | 2 of 3 |
| WFTLNQYGNS | VIYSDGRRTFYGDSVK | GRAAGTFDS | no signal | 0 of 3 |
| GFTLNSYGVS | VCYSDFRRTFYGDSVK | GRAAGTFDS | no signal | 0 of 3 |
| LFTLNSYGIS | VIYSDGRRTFYGDSVK | GREACTFDS | 3.16 | 2 of 3 |
| VFTLWSYGIS | VIYSDGRRTFYGDSVK | GRAIGTFDS | no signal | 0 of 3 |
| GFTLNSYGIS | VIYSDGRRTFYGDSVK | QRWRGTFDS | no signal | 0 of 3 |
| GFTLNDYGIS | VIYSQGRRTFIGDSVK | GRAAGTFDS | no signal | 0 of 3 |
| GLTLNSYGIS | VIYSDGRRTFYGDSVK | GPAAGLFDS | 6.40 | 1 of 3 |
| GFTLNSYGIS | VWYSDGRRTFYGDSKK | VRAAGTFDS | 3.57 | 1 of 3 |
| GFTLNSYGIS | VIYSDGRRTFYGDWVK | GRVANTFDS | 5.27 | 2 of 3 |
| GFTLNSYGHS | VIYSHGRRTFYGDSVK | GRAAGTEDS | 5.19 | 1 of 3 |
| GFTLNSRGIS | VIYSDSRRTFYGDSVE | GRAAGTFDS | no signal | 0 of 3 |
| GFDLNSYSIS | VIYTDGRRTFYGDSVK | GRAAGTFDS | no signal | 0 of 3 |
| GFTLNSYTIS | VIYSDGRRTFYGDSVK | MRAAGTFDS | 4.54 | 1 of 3 |
| GFTLNSIGIS | VIYSDGRRTFYGDSVK | GVAIGTFDS | 4.66 | 1 of 3 |
| GFTLNSYGIS | VIYSDGWRTFYGDEVK | GRAAGTFIS | 2.13 | 3 of 3 |
| GFTLNSYGIS | SIYSDGRRTFYGDSPK | GRAAGTTDS | 3.79 | 1 of 3 |
| GFTLNSYGIS | VILSDQRRTFYGDSVK | GRAAGTFDI | 5.36 | 1 of 3 |
| GFTLNSYGIS | VIYSPTRPTFYGDSVK | GRAAGTFDS | 4.24 | 3 of 3 |
| GFTLNKYGIS | VIYSDRRRTTYGDSVK | GRAAGTFDS | 4.32 | 2 of 3 |
| GFTLNSYGES | VIYMDGRCTFYGDSVK | GRAAGTFDS | 4.46 | 2 of 3 |
| GFTLNSYGIS | VIYSDGRRTFPGDSVK | GRAAGTKSS | 5.23 | 2 of 3 |
| GFTLNSYGIS | VIYSDGRRTFYGDSVK | QRAAGCFDS | no signal | 0 of 3 |
| GFTLNSVGIS | VIYSDGRRTFKGDAVK | GRAAGTFDS | no signal | 0 of 3 |
| WFTLNSYRIS | DIYSDGRRTFYGDSVK | GRAAGTFDS | no signal | 0 of 3 |
| GFTLNSVGIS | VIYSDGRRTFQGDSGK | GRAAGTFDS | no signal | 0 of 3 |
| GFRLMSYGWS | VIYSDGRRTFYGDSVK | GRAAGTFDS | no signal | 0 of 3 |
| GFTLNSYGGS | VIYSDGRDTFYGDSVK | GRAAGTFDK | no signal | 0 of 3 |
| GFTLNSGAIS | VIYSDGRRTFYGDSVK | GRCAGTFDS | no signal | 0 of 3 |
| GATLNSYGIS | VIYSDGRREFYGDSVK | GQAAGTFDS | 2.58 | 1 of 3 |
| GFTLNSYGIS | VICMDGRRTFYGDSVK | GRAAGTFDS | no signal | 0 of 3 |
| GFTLNSYGIS | VIYSDGRRTFYGDSVG | GRAAYTADS | 3.27 | 1 of 3 |
| GFTLNSYGIS | VIYSDKRRTFYNDSVK | GRAASTFDS | 5.28 | 1 of 3 |
| GFTLNGYGIS | VIYSDRPRTFYGDSVK | GRAAGTFDS | no signal | 0 of 3 |
| GTTLNSYGIY | VIYSDYRRTFYGDSVK | GRAAGTFDS | 4.87 | 2 of 3 |
| GLTLNSYGIS | VIYSDGRRTFYGDMVK | GRASGTFDS | no signal | 0 of 3 |
| GFTLNSYGIS | VIYSDGRRTFYGRSWQ | GRAAGTFDS | 2.87 | 1 of 3 |

A selection of 8 entries from above:

| CDR-H1 | CDR-H2 | CDR-H3 | mean, log10 nM | seen in |
|---|---|---|---|---|
| GFTLNSMGIV | VIYSDGRRTFYGDLVK | GRAAGTFDS | 4.60 | 2 of 3 |
| GFTLNSYTIS | VIYSDGRRTFYGDSVK | MRAAGTFDS | 4.54 | 1 of 3 |
| GFTLNSYGIS | VIYSDGRRTFPGDSVK | GRAAGTKSS | 5.23 | 2 of 3 |
| WFTLNQYGNS | VIYSDGRRTFYGDSVK | GRAAGTFDS | no signal | 0 of 3 |
| GFTLNSYGIS | VIYSRGRRTFGGDSVK | GRLAGTFDS | no signal | 0 of 3 |
| GFTLNSYGES | VIQSDGRRTFYGDMVK | GRAAGTFDS | no signal | 0 of 3 |
| GFTLNSYGIS | VWYSDGRRTFYGDSKK | VRAAGTFDS | 3.57 | 1 of 3 |
| GFTLNSVGIS | VIYSDGRRTFKGDAVK | GRAAGTFDS | no signal | 0 of 3 |